Measurements published in patent US6692753B2, “Potentiation of the immune response” (priority 1997, dated 2004).

Chains of the proteins cited; added tags and fusions are not shown.
UniProt P27487, whole entry, species assumed: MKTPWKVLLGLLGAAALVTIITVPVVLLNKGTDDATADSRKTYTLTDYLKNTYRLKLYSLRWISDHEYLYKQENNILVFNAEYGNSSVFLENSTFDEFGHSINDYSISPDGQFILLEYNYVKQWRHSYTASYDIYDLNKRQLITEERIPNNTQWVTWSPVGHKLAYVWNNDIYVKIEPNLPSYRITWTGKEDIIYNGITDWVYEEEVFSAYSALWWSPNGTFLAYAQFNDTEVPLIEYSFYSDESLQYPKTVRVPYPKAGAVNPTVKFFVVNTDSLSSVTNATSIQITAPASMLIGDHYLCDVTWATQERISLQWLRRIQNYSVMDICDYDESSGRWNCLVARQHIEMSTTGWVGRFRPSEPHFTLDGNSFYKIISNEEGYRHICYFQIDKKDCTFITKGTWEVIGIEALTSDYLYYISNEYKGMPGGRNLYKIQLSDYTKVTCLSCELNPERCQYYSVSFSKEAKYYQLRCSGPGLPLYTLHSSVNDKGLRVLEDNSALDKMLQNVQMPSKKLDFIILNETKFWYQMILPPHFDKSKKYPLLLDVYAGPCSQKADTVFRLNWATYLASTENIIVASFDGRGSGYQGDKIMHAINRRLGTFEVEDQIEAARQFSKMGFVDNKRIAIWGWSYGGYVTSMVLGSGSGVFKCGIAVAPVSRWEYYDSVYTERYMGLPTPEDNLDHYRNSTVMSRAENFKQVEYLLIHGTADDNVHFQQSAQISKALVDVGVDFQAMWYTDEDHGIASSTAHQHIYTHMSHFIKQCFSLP

Biological target: purified DPPIV (i.e., CD26) (Homo sapiens, UniProt P27487)
Test: Enzymatic activity of purified DPPIV, fluorescent cleavage of Ala-ProAFC
Assay type: biochemical
Details: varying concentrations

SMILES: CC(C)[C@H](N)C(=O)N1CCC[C@H]1B(O)O [Val-boroPro]
- inhibition of enzymatic activity (AFC release from Ala-ProAFC): inhibited
